From publication PMC3005221

Tests used:
ubiquitin (Homo sapiens) = ubiquitin (Homo sapiens) (UniProt P0CG48); conditions: cited from earlier work
FITC-β-Ala-β-Ala-PSDHV = experiment: fluorescence polarisation
[1] = molecular target: FITC-β-Ala-β-Ala-RLAGG (human); experiment: fluorescence polarisation
FITC-β-Ala-β-Ala-FDGFM = experiment: fluorescence polarisation
[2] = molecular target: FITC-β-Ala-β-Ala-ALRGG (human); experiment: fluorescence polarisation
[3] = molecular target: FITC-β-Ala-β-Ala-RLRAG (human); experiment: fluorescence polarisation

Kd (FITC-β-Ala-β-Ala-PSDHV) [µM]	Kd [1] [µM]	Kd (FITC-β-Ala-β-Ala-FDGFM) [µM]	Kd [2] [µM]	Kd [3] [µM]	Substance	Kd (ubiquitin (Homo sapiens)) [µM]
					Ubp-M BUZ (from UniProt Q9Y5T5)	6.5
> 140	16	> 150	2.3	62	(His)6-tagged Ubp-M BUZ domain (from UniProt Q9Y5T5 22-143) (domain or fragment)	
